Source: BindingDB's records for PubMed 8632342 (Eli Lilly, 1996)

Chains of the proteins cited; added tags and fusions are not shown.
UniProt P30994, whole entry: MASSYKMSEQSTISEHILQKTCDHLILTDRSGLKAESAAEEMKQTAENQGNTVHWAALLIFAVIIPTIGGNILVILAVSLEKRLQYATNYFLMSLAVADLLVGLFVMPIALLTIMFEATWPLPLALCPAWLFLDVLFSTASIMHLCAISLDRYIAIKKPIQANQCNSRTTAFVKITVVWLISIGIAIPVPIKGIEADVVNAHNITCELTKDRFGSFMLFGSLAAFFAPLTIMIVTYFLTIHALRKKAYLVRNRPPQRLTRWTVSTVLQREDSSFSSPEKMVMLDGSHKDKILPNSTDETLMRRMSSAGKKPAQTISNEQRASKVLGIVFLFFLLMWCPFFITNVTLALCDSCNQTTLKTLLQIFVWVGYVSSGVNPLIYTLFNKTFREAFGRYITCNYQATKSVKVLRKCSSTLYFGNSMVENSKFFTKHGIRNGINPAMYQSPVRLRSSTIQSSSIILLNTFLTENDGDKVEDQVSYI

Biological target: 5-hydroxytryptamine receptor 2B (Rattus norvegicus, UniProt P30994)

Cc1nc2sccn2c(=O)c1CCN1CCC(=C(c2ccc(F)cc2)c2ccc(F)cc2)CC1
Ki: 5.18 nM
